{"source": "patent US20250296928A1", "about": "“A SYNTHESIS SCHEME AND PROCEDURES FOR PREPARING A SIK3 INHIBITOR AND INTERMEDIATES THEREOF” (iOmx Therapeutics AG, priority 2021, published 2025)", "tested_on": "MC38 syngeneic tumour model", "test": "MC38 syngeneic tumour model, comparative study E9 versus dasatinib (FIG. 5)", "format": "in vivo, mice", "conditions": "30 mg/kg QD", "excerpt": "Left hand column=compound treatment group; and right hand column=vehicle treatment group. Y axes=Tumour volume (mm3); X axes=Days after inoculation."}
{"smiles": "Cc1nc(Nc2ncc(C(=O)Nc3c(C)cccc3Cl)s2)cc(N2CCN(CCO)CC2)n1", "note": "[Compound A8, N-(2-chloro-6-methylphenyl)-2-[[6-[4-(2-hydroxyethyl)-1-piperazinyl]-2-methyl-4-pyrimidinyl]amino]-5-thiazolecarboxamide]", "values": [{"measurement": "average TGI", "value": 56, "unit": "%"}]}
